# Assay results taken from ChEMBL document CHEMBL3880431, “Heme oxygenase inhibitors, screening methods for heme oxygenase inhibitors and methods of use of heme oxygenase inhibitors for antimicrobial therapy” (2013).
# Test: Lipophilicity, log P of the compound
# Type: physicochemical
# Settings: octanol/water
smiles,measurement,value
NCc1ccc([N+](=O)[O-])cc1[N+](=O)[O-],logP,1.07
